In assay [1] the target is Adenosine receptors; A1 & A3 (Homo sapiens) (UniProt P30542+P0DMS8). In words: Selectivity ratio (hA1/hA3). In kind it is protein assay.
Assay [2] has as its target Adenosine receptors; A2b & A3 (Homo sapiens) (UniProt P29275+P0DMS8). In words: Selectivity ratio (h2B/hA3). In kind it is protein assay.

Sequences of proteins named here, by UniProt entry; tags and fusion partners are left off. A change or cut given only in a name is not applied to a line headed by its entry.
UniProt P30542, whole entry, looked up: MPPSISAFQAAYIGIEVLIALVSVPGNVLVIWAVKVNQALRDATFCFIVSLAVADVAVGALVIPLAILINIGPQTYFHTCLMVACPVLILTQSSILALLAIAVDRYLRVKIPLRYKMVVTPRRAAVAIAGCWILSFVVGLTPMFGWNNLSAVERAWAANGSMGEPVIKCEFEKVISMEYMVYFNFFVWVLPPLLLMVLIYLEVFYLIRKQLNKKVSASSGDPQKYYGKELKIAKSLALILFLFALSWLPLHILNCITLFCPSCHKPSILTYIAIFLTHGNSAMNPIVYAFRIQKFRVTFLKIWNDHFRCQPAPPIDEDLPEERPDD
UniProt P0DMS8, whole entry, looked up: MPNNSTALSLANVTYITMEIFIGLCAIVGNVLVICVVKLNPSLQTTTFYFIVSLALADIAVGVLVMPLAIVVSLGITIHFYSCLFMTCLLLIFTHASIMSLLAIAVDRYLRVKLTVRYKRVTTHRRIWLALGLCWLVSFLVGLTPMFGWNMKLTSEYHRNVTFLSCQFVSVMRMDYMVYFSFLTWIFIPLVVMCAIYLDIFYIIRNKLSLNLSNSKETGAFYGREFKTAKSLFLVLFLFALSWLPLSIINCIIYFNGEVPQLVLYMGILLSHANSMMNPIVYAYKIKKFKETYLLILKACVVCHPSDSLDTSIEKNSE
UniProt P29275: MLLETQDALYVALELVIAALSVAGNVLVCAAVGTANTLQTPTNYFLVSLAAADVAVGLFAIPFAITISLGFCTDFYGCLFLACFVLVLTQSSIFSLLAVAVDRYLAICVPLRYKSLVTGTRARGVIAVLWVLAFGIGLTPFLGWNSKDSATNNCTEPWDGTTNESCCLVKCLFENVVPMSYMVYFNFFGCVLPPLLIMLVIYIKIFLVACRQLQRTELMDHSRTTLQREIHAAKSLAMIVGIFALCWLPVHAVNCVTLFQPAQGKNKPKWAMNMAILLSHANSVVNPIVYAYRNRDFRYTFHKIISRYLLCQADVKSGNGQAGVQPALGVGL

SMILES strings stand for the structures.

In the case of `CCCn1cc2c(nc(NC(=O)Nc3ccc(OC)cc3)n3nc(-c4ccco4)nc23)n1`, the Ratio in assay [1] turned out to be 1500; in assay [2], 2570.

The values above are taken from ChEMBL document CHEMBL1136016, “Synthesis, biological activity, and molecular modeling investigation of new pyrazolo[4,3-e]-1,2,4-triazolo[1,5-c]pyrimidine derivatives as human A(3) adenosine receptor antagonists” (J Med Chem, 2002).
